Measurements from ChEMBL document CHEMBL4619776, “Probing the Plasticity in the Active Site of Protein N-terminal Methyltransferase 1 Using Bisubstrate Analogues” (J Med Chem, 2020).
The source made the active and inactive calls. The calls are words filed in the database; no cut-off is given here.

Key:
[1] = molecular target: T1, N-terminal Xaa-Pro-Lys N-methyltransferase 1 (Homo sapiens) (UniProt Q9BV86); assay: Inhibition of NTMT1 (unknown origin) assessed as residual enzyme activity level at => 0.3 uM pre-incubated for 120 mins before addition of 6 to 12 times Km concentrations of GPKRIA peptide substrate in presence of fixed concentration of SAM by SAHH coupled fluorescence assay relative to control
T1 sequence (whole entry): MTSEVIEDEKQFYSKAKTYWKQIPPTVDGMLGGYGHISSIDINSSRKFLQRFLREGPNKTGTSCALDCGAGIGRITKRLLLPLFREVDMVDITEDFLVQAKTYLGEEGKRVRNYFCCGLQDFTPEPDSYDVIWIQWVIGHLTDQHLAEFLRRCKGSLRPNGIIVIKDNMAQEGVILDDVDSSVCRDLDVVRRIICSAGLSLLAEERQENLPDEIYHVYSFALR

[2] = molecular target: T1, N-terminal Xaa-Pro-Lys N-methyltransferase 1 (Homo sapiens); assay: Inhibition of NTMT1 (unknown origin) assessed as residual enzyme activity level at => 0.3 uM pre-incubated for 120 mins before addition of 50 times Km concentrations of GPKRIA peptide substrate in presence of fixed concentration of SAM by SAHH coupled fluorescence assay relative to control
[3] = molecular target: T1, N-terminal Xaa-Pro-Lys N-methyltransferase 1 (Homo sapiens); assay: Inhibition of NTMT1 (unknown origin) pre-incubated for 120 mins before addition of fixed GPKRIA peptide substrate in presence of 6 to 25 times Km concentrations of SAM by SAHH coupled fluorescence assay relative to control
Homo sapiens [4] = organism: Homo sapiens; assay: Selectivity for NTMT1 (unknown origin) over PRMT1 (unknown origin)
Homo sapiens [5] = organism: Homo sapiens; assay: Selectivity for NTMT1 (unknown origin) over NNMT (unknown origin)
Homo sapiens [6] = organism: Homo sapiens; assay: Selectivity for NTMT1 (unknown origin) over PRMT3 (unknown origin)
[7] = molecular target: T1, N-terminal Xaa-Pro-Lys N-methyltransferase 1 (Homo sapiens); assay: Inhibition of NTMT1 (unknown origin) pre-incubated for 120 mins before addition of 6 to 12 times Km concentrations of GPKRIA peptide substrate in presence of fixed concentration of SAM by SAHH coupled fluorescence assay
Homo sapiens [8] = organism: Homo sapiens; assay: Selectivity for NTMT1 (unknown origin) over G9a (unknown origin)
Homo sapiens [9] = organism: Homo sapiens; assay: Selectivity for NTMT1 (unknown origin) over Trypanosoma brucei PRMT7
[10] = molecular target: T1, N-terminal Xaa-Pro-Lys N-methyltransferase 1 (Homo sapiens); assay: Sow and tight binding inhibition of NTMT1 (unknown origin) assessed as [enzyme]/Ki(app) ratio pre-incubated up to 120 mins before GPKRIA peptide substrate addition by SAHH coupled fluorescence assay based Morrison's quadratic equation analysis
Homo sapiens [11] = organism: Homo sapiens; assay: Selectivity for NTMT1 (unknown origin) over SETD7 (unknown origin)
Homo sapiens [12] = organism: Homo sapiens; assay: Selectivity for NTMT1 (unknown origin) over SAHH (unknown origin)

For `CC[C@H](C)[C@H](NC(=O)[C@H](CCCNC(=N)N)NC(=O)[C@H](CCCCN)NC(=O)[C@@H]1CCCN1C(=O)CNCCCN(CC[C@H](N)C(=O)O)C[C@H]1O[C@@H](n2cnc3c(N)ncnc32)[C@H](O)[C@@H]1O)C(=O)N[C@@H](C)C(N)=O`, the Activity [1] was 10%, the Activity [2] was 20% and the inhibition [3] was “Active”.
`CC[C@H](C)[C@H](NC(=O)[C@H](CCCNC(=N)N)NC(=O)[C@H](CCCCN)NC(=O)[C@@H]1CCCN1C(=O)CNCCCCN(CC[C@H](N)C(=O)O)C[C@H]1O[C@@H](n2cnc3c(N)ncnc32)[C@H](O)[C@@H]1O)C(=O)N[C@@H](C)C(N)=O` showed a Selectivity ratio (Homo sapiens [4]) of over 3000, a Selectivity ratio (Homo sapiens [5]) of over 3000 and a Selectivity ratio (Homo sapiens [6]) of over 3000. The Activity [1] was 10%, the inhibition [7] was “Active” and the Activity [2] was 20%. The Selectivity ratio (Homo sapiens [8]) was over 3000, the Selectivity ratio (Homo sapiens [9]) was over 3000 and the Ratio [10] was over 100. The inhibition [3] was “Active”, the Selectivity ratio (Homo sapiens [11]) was over 3000 and the Selectivity ratio (Homo sapiens [12]) was over 3000.
